This note sets out measurements from PMC4120670 (Kidney International, 2014).

Test [1] deals with T1, MATE1 (Homo sapiens, UniProt Q96FL8).
T1 sequence (Q96FL8 1-570): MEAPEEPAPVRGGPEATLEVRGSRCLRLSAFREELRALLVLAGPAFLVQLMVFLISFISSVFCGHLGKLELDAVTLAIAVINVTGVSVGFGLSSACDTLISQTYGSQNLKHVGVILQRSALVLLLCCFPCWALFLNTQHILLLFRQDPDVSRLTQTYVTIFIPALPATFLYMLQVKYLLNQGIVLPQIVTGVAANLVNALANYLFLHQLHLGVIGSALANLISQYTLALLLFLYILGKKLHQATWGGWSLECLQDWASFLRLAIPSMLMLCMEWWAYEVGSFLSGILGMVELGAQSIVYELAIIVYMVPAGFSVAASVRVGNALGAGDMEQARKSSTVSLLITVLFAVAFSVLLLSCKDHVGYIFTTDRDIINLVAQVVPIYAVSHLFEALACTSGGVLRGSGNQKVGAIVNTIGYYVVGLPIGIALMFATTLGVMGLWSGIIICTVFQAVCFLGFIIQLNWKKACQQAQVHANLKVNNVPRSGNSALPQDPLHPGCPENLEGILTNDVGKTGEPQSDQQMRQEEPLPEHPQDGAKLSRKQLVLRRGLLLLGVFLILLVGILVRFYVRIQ
The experiment in a line: Inhibition of MATE1-mediated creatinine transport. The format is cell-based.

Test [2] addresses T1, MATE1. The experiment in a line: Inhibition of MATE1 transport of tetraethylammonium. In kind it is cell-based.

Structures are written as SMILES.

One may read the IC50 as the point on the concentration scale where inhibition reaches its midpoint. Read a low IC50 as greater potency. Turning to `CN/C(=N/CCSCc1nc[nH]c1C)NC#N` [Cimetidine, cimetidine], the IC50 was 200 nM in test [1] and 1460 ± 110 nM in test [2].
